Results from ChEMBL document CHEMBL4033769, “Simple Tetrahydroisoquinolines Are Potent and Selective Kappa Opioid Receptor Antagonists” (ACS Med Chem Lett, 2017).

Protein sequences, listed by entry. Tags and fused reporters are not part of them. Lines headed by an entry give the natural chain unless they say otherwise; changes in a name come on top.
UniProt P41145: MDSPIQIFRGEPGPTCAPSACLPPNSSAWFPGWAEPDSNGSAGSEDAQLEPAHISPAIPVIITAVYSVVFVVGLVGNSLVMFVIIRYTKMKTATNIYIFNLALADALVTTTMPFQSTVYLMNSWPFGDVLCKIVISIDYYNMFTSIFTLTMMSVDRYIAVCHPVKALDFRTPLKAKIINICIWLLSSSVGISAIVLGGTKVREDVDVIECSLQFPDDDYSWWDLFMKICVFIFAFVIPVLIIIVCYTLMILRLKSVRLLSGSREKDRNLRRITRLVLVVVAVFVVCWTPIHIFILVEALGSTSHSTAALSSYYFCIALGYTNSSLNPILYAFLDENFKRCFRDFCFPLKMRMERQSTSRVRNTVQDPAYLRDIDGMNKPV
UniProt P41143, whole entry: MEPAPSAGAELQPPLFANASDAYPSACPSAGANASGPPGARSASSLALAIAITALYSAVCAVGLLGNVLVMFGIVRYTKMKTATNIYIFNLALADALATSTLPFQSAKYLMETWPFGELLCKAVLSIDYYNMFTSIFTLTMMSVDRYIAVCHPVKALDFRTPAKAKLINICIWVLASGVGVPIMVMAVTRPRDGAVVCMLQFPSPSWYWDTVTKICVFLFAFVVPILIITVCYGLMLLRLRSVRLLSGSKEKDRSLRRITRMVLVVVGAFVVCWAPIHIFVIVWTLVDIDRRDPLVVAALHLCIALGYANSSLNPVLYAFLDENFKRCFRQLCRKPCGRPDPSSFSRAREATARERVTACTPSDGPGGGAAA

Tests used:
[1] = biological target: Kappa-type opioid receptor (Homo sapiens) (UniProt P41145)
[2] = biological target: Delta-type opioid receptor (Homo sapiens) (UniProt P41143)

CC(C)[C@@H](CN1CCCCC1)NC(=O)[C@H]1Cc2ccc(O)cc2CN1
Ke [1]: 6.8 nM
Ke [2]: > 3000 nM
